{"source": "paper PMC5520492", "about": "“Inhibition of DNA2 nuclease as a therapeutic strategy targeting replication stress in cancer cells” (Oncogenesis, 2017)", "tested_on": "U2OS cells", "assay": "Cell-based viability/proliferation screen, DAPI staining and automated microscopy", "conditions": "IC50 n.d."}
{"smiles": "COC1=C(N)C(=O)c2nc(-c3nc(C(=O)O)c(C)c(-c4ccc(OC)c(OC)c4O)c3N)ccc2C1=O", "values": [{"measurement": "Cell Based screening remark", "value": "n.d. (cytotoxic)"}]}
